What was measured:
[1] = molecular target: T1, PARP-1 (Homo sapiens, UniProt P09874); assay: HXMS of WT PARP-1/SSB-DNA complex; settings: PARP-1/SSB-DNA complex with versus without inhibitor
[2] = molecular target: T1, PARP-1; assay: FP DNA binding affinity of PARP-1 for SSB-DNA
[3] = molecular target: T1, PARP-1; assay: SPR dissociation kinetics of PARP-1 from SSB-DNA; type: binding
[4] = molecular target: T1, PARP-1; assay: Classification of PARPi by allosteric effects; settings: based on HXMS and DNA binding studies

By UniProt entry, the sequences of proteins in these tests, tags left out.
UniProt P09874, whole entry: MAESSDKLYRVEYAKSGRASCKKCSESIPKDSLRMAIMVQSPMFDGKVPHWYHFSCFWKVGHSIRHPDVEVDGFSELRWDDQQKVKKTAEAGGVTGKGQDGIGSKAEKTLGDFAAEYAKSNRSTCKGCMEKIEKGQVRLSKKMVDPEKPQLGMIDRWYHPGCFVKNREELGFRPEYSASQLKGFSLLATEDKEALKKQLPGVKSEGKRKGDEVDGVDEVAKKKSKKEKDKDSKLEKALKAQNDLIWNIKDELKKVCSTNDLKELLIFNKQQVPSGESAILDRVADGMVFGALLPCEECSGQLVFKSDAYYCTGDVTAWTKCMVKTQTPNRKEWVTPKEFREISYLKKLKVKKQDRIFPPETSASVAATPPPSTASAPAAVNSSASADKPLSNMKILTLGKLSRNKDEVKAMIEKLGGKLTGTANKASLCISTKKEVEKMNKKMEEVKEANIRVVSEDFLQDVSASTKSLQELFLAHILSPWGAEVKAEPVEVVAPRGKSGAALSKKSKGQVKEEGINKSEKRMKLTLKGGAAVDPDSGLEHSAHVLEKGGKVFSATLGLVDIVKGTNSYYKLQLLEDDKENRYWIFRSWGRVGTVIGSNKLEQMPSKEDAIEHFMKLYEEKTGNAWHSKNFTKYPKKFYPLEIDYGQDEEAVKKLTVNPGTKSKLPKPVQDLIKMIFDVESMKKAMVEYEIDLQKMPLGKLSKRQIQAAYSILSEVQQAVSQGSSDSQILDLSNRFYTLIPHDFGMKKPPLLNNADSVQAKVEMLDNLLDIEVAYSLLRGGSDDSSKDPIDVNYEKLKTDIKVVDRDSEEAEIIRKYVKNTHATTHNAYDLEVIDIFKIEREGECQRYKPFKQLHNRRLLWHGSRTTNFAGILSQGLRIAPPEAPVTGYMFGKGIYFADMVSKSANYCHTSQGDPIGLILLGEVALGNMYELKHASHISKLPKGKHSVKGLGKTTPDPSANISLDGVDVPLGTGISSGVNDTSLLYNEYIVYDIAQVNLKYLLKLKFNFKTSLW

influence on PARP-1 SSB DNA binding affinity (in words) [2]: only a small increase in affinity
influence on dissociation (kd) of PARP-1 from a DNA break (in words) [3]: slowed release to a smaller extent
PARPi type by allosteric effect [4]: Type II
SMILES: Cn1ncnc1[C@H]1c2n[nH]c(=O)c3cc(F)cc(c23)N[C@@H]1c1ccc(F)cc1 [talazoparib]
allosteric effect on PARP-1 (HX changes) [1]: minor increases in exchange in the helical domain (HD) in the αC and αF helices

Reference: PMC7347020 (Science (New York, N.Y.), 2020)
